This list holds what a sample rich in hits left over. Calls of active or inactive are those of the source.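 The calls were made as follows: active = fluorescence response below the plate's average for near-maximal glutamate wells, less 3 SD of those wells; inactive = the rest.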
Molecular target: Metabotropic glutamate receptor 4 (Homo sapiens) (UniProt Q14833)
Assay: mGluR4 calcium signal in M1 antagonist follow-up – cell-based, antagonist mode, secondary assay 1, M1 allosteric modulator project (AID 678);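 also: raw unnormalized fluorescence span taken in the window right after glutamate addition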
Details: CHO-mGluR4 calcium flux, Fluo-4 fluorescence, glutamate EC80; at 10 µM; stronger effect = lower value

Fluorescence response (max-min), inactive:
CNCCCN1c2ccccc2CCc2ccccc21 242, OC(CCN1CCCCC1)(c1ccccc1)C1CCCCC1 (configuration not stated) 268, OCCN1CCN(CCCN2c3ccccc3Sc3ccc(Cl)cc32)CC1 265, Cc1ccc(N(CC2=NCCN2)c2cccc(O)c2)cc1 276, CN1C2CCC1CC(OC(=O)c1c[nH]c3ccccc13)C2 (configuration not stated) 230, CCN(CC)CCOC(=O)C1(C2CCCCC2)CCCCC1 263, CC(C)[N+]1(C)[C@@H]2CC[C@H]1CC(OC(=O)C(CO)c1ccccc1)C2 (some centres not stated) 245

Reference: PubChem BioAssay AID678 (Vanderbilt High Throughput Screening Facility, 2007)
